In article PMC7850479, “A drug repurposing screen identifies hepatitis C antivirals as inhibitors of the SARS-CoV2 main protease” (PLoS ONE, 2021):

Assays:
SARS-CoV-2 Mpro [1] = target: T1, SARS-CoV-2 Mpro (Severe acute respiratory syndrome coronavirus 2, UniProt P0DTD1); format: biochemical
SARS-CoV-2 Mpro [2] = target: T1, SARS-CoV-2 Mpro; assay: Dose validation assay (10-point dose-response), fluorescent Mpro protease assay with Ac-Abu-Tle-Leu-Gln-AFC; format: biochemical; conditions: 80nM Mpro, 32μM Ac-Abu-Tle-Leu-Gln-AFC, 10 concentrations 150 μM to 7.6 nM, n = 3, 4-parameter nonlinear regression

Row | SMILES | Z10 (SARS-CoV-2 Mpro [1]) | IC50 (SARS-CoV-2 Mpro [2])
1 | NCCCC[C@H](NC(=O)[C@@H]1CCCN1C(=O)[C@@H]1CSSC[C@H](N)C(=O)N[C@@H](Cc2ccc(O)cc2)C(=O)N[C@@H](Cc2ccccc2)C(=O)N[C@@H](CCC(N)=O)C(=O)N[C@@H](CC(N)=O)C(=O)N1)C(=O)NCC(N)=O [lypressin] | 0.2173 | 
2 | CCCC[C@H](NC(=O)[C@@H]1[C@@H]2[C@H](CN1C(=O)[C@@H](NC(=O)NC1(CS(=O)(=O)C(C)(C)C)CCCCC1)C(C)(C)C)C2(C)C)C(=O)C(=O)NC1CC1 [narlaprevir] |  | 1100 nM
